Values of other authors as cited in US20070122482A1, “Method for preparing modified release pharmaceutical compositions” (priority 2003, published 2007).
Only a part of the results on these compounds is given; other tests are left out.

Details: Table 1, Poorly-Soluble Drug Candidates

CCC(=O)N(c1ccccc1)C1CCN(CCc2ccccc2)CC1
Solubility in water: Sparingly
